# Publication PMC5731819, “Single-molecule studies contrast ordered DNA replication with stochastic translesion synthesis” (eLife, 2017)
# Target: T1, E. coli DNA sliding clamp β (E. coli, UniProt P0A988 1-366, maleimide-Atto647N on a single cysteine residue (position not given))
# T1 construct: DNA polymerase III subunit beta (sliding clamp β), E. coli, gene dnaN; also called β-clamp; β2 clamp; not shown: His tag (from the vector pET28a)
# T1 sequence (looked up): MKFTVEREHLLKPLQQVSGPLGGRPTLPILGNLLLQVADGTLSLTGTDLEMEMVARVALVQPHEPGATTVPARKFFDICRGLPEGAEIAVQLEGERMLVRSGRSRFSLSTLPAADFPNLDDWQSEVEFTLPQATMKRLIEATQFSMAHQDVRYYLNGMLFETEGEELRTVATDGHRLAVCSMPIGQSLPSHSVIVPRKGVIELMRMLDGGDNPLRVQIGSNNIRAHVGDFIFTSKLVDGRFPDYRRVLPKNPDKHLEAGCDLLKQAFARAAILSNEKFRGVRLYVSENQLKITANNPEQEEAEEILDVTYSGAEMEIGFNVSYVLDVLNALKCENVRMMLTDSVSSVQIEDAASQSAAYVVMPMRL
# Assay: co-localization single-molecule spectroscopy (CoSMoS, TIRF); labelled Pol IIIcore (30 nM) on β-clamp loaded on surface-held matched DNA, no dNTPs; 23 °C, 20 mM Tris-HCl pH 7.5, 50 mM potassium glutamate, 8 mM MgCl2
# Details: both partners purified
binder,measurement,value
"Pol IIIcore with a weakened β-binding motif in the ε subunit, ε (β-) (complex, E. coli, Atto 488 (CoA-linked) conjugated by Sfp to the N-terminal Ybbr tag, DNA polymerase III subunit alpha (Pol IIIα), E. coli, gene dnaE; DNA polymerase III subunit theta (θ), E. coli, gene holE; source: recombinant subunits purified; ε mutant by site directed mutagenesis; copies: + +) chain 1: MSEPRFVHLRVHSDYSMIDGLAKTAPLVKKAAALGMPALAITDFTNLCGLVKFYGAGHGAGIKPIVGADFNVQCDLLGDELTHLTVLAANNTGYQNLTLLISKAYQRGYGAAGPIIDRDWLIELNEGLILLSGGRMGDVGRSLLRGNSALVDECVAFYEEHFPDRYFLELIRTGRPDEESYLHAAVELAEARGLPVVATNDVRFIDSSDFDAHEIRVAIHDGFTLDDPKRPRNYSPQQYMRSEEEMCELFADIPEALANTVEIAKRCNVTVRLGEYFLPQFPTGDMSTEDYLVKRAKEGLEERLAFLFPDEEERLKRRPEYDERLETELQVINQMGFPGYFLIVMEFIQWSKDNGVPVGPGRGSGAGSLVAYALKITDLDPLEFDLLFERFLNPERVSMPDFDVDFCMEKRDQVIEHVADMYGRDAVSQIITFGTMAAKAVIRDVGRVLGHPYGFVDRISKLIPPDPGMTLAKAFEAEPQLPEIYEADEEVKALIDMARKLEGVTRNAGKHAGGVVIAPTKITDFAPLYCDEEGKHPVTQFDKSDVEYAGLVKFDFLGLRTLTIINWALEMINKRRAKNGEPPLDIAAIPLDDKKSFDMLQRSETTAVFQLESRGMKDLIKRLQPDCFEDMIALVALFRPGPLQSGMVDNFIDRKHGREEISYPDVQWQHESLKPVLEPTYGIILYQEQVMQIAQVLSGYTLGGADMLRRAMGKKKPEEMAKQRSVFAEGAEKNGINAELAMKIFDLVEKFAGYGFNKSHSAAYALVSYQTLWLKAHYPAEFMAAVMTADMDNTEKVVGLVDECWRMGLKILPPDINSGLYHFHVNDDGEIVYGIGAIKGVGEGPIEAIIEARNKGGYFRELFDLCARTDTKKLNRRVLEKLIMSGAFDRLGPHRAALMNSLGDALKAADQHAKAEAIGQADMFGVLAEEPEQIEQSYASCQPWPEQVVLDGERETLGLYLTGHPINQYLKEIERYVGGVRLKDMHPTERGKVITAAGLVVAARVMVTKRGNRIGICTLDDRSGRLEVMLFTDALDKYQQLLEKDRILIVSGQVSFDDFSGGLKMTAREVMDIDEAREKYARGLAISLTDRQIDDQLLNRLRQSLEPHRSGTIPVHLYYQRADARARLRFGATWRVSPSDRLLNDLRGLIGSEQVELEFD chain 2: MSTAITRQIVLDTETTGMNQIGAHYEGHKIIEIGAVEVVNRRLTGNNFHVYLKPDRLVDPEAFGVHGIADEFLLDKPTFAEVADEFMDYIRGAELVIHNAAFDIGFMDYEFSLLKRDIPKTNTFCKVTDSLAVARKMFPGKRNSLDALCARYEIDNSKRTLHGALLDAQILAEVYLAMTGGQTSAAAAMEGETQQQQGEATIQRIVRQASKLRVVFATDEEIAAHEARLDLVQKKGGSCLWRA chain 3: MLKNLAKLDQTEMDKVNVDLAAAGVAFKERYNMPVIAEAVEREQPEHLRSWFRERLIAHRLASVNLSRLPYEPKLK",lifetime on clamp-DNA,7.9 s
"Pol IIIcore with an enhanced β-binding motif in the ε subunit, ε (β+) (complex, E. coli, Atto 488 (CoA-linked) conjugated by Sfp to the N-terminal Ybbr tag, DNA polymerase III subunit alpha (Pol IIIα), E. coli, gene dnaE; DNA polymerase III subunit theta (θ), E. coli, gene holE; source: recombinant subunits purified; ε mutant by site directed mutagenesis; copies: + +) chain 1: MSEPRFVHLRVHSDYSMIDGLAKTAPLVKKAAALGMPALAITDFTNLCGLVKFYGAGHGAGIKPIVGADFNVQCDLLGDELTHLTVLAANNTGYQNLTLLISKAYQRGYGAAGPIIDRDWLIELNEGLILLSGGRMGDVGRSLLRGNSALVDECVAFYEEHFPDRYFLELIRTGRPDEESYLHAAVELAEARGLPVVATNDVRFIDSSDFDAHEIRVAIHDGFTLDDPKRPRNYSPQQYMRSEEEMCELFADIPEALANTVEIAKRCNVTVRLGEYFLPQFPTGDMSTEDYLVKRAKEGLEERLAFLFPDEEERLKRRPEYDERLETELQVINQMGFPGYFLIVMEFIQWSKDNGVPVGPGRGSGAGSLVAYALKITDLDPLEFDLLFERFLNPERVSMPDFDVDFCMEKRDQVIEHVADMYGRDAVSQIITFGTMAAKAVIRDVGRVLGHPYGFVDRISKLIPPDPGMTLAKAFEAEPQLPEIYEADEEVKALIDMARKLEGVTRNAGKHAGGVVIAPTKITDFAPLYCDEEGKHPVTQFDKSDVEYAGLVKFDFLGLRTLTIINWALEMINKRRAKNGEPPLDIAAIPLDDKKSFDMLQRSETTAVFQLESRGMKDLIKRLQPDCFEDMIALVALFRPGPLQSGMVDNFIDRKHGREEISYPDVQWQHESLKPVLEPTYGIILYQEQVMQIAQVLSGYTLGGADMLRRAMGKKKPEEMAKQRSVFAEGAEKNGINAELAMKIFDLVEKFAGYGFNKSHSAAYALVSYQTLWLKAHYPAEFMAAVMTADMDNTEKVVGLVDECWRMGLKILPPDINSGLYHFHVNDDGEIVYGIGAIKGVGEGPIEAIIEARNKGGYFRELFDLCARTDTKKLNRRVLEKLIMSGAFDRLGPHRAALMNSLGDALKAADQHAKAEAIGQADMFGVLAEEPEQIEQSYASCQPWPEQVVLDGERETLGLYLTGHPINQYLKEIERYVGGVRLKDMHPTERGKVITAAGLVVAARVMVTKRGNRIGICTLDDRSGRLEVMLFTDALDKYQQLLEKDRILIVSGQVSFDDFSGGLKMTAREVMDIDEAREKYARGLAISLTDRQIDDQLLNRLRQSLEPHRSGTIPVHLYYQRADARARLRFGATWRVSPSDRLLNDLRGLIGSEQVELEFD chain 2: MSTAITRQIVLDTETTGMNQIGAHYEGHKIIEIGAVEVVNRRLTGNNFHVYLKPDRLVDPEAFGVHGIADEFLLDKPTFAEVADEFMDYIRGAELVIHNAAFDIGFMDYEFSLLKRDIPKTNTFCKVTDSLAVARKMFPGKRNSLDALCARYEIDNSKRTLHGALLDAQILAEVYLAMTGGQTSLPLAMEGETQQQQGEATIQRIVRQASKLRVVFATDEEIAAHEARLDLVQKKGGSCLWRA chain 3: MLKNLAKLDQTEMDKVNVDLAAAGVAFKERYNMPVIAEAVEREQPEHLRSWFRERLIAHRLASVNLSRLPYEPKLK",lifetime on clamp-DNA,40.2 s
